Experimental data published in PubChem BioAssay AID1460 (National Center for Advancing Translational Sciences (NCATS), 2008).
This is a selection; strong and weak results do not stand in their true shares. Some results for these compounds are left out of this collection, so the calls shown say nothing about other tests. Results filed as inconclusive are left out. Calls of active or inactive are those of the source. Calls follow the shape of the dose curve; as a rule, active = well fitted inhibition curve with a large enough effect; inconclusive = small, poorly fitted or top-dose-only effect; inactive = flat fitted curve, though single readings scatter.

The chains behind the UniProt entries cited, without tags or fusion partners. Residues count along the entry.
UniProt P10636, 561-689 P618L limits assumed: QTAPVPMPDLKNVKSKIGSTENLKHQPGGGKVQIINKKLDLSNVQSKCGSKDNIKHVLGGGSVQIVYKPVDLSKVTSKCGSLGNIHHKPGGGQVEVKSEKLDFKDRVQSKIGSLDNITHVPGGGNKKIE

Target: Microtubule-associated protein tau (Homo sapiens) (UniProt P10636)
Assay: qHTS for Inhibitors of Tau Fibril Formation, Thioflavin T Binding; also: nearly all actives have a fitted effect of over 55% in size
Details: recombinant tau K18 P301L (four-repeat tau fragment), heparin-induced fibrillization, ThT fluorescence; at 57.4 µM (top of the series)
% is scaled to controls: 0 for no effect and ±100 for the full control effect.

SMILES	activity, negative = inhibition
CCN(CC)CC(C)C(C)OC(=O)C(O)(c1ccccc1)c1ccccc1 (stereo unspecified)	inactive: 2.94%
CN(C)C1(CNC(=O)c2cccc(Cl)c2)CCCCC1	inactive: -2.5%
CC(C)N1C(=O)CC2(CCN(CCOC(=O)C(O)(c3ccccc3)c3ccccc3)CC2)C1=O	inactive: 0.106%
CN(C)C1(CNC(=O)c2ccccc2F)CCCCC1	inactive: 1.48%
O=C(NCC1(N2CCCCC2)CCCCC1)c1cc([N+](=O)[O-])ccc1Cl	inactive: -13.3%
C=CCN1CCN(CCOC(=O)C(O)(c2ccccc2)c2ccccc2)CC1	inactive: -3.37%
CCOc1cccc(C(=O)NCC2(N(C)C)CCCCC2)c1	inactive: 7.43%
CCN1CCCC(OC(=O)C2(O)c3ccccc3C=Cc3ccccc32)C1 (stereo unspecified)	inactive: 7.25%
CN(C)C1(CNC(=O)c2ccccc2[N+](=O)[O-])CCCCC1	inactive: -9.21%
Cc1ccccc1C(=O)NCC1(N2CCCCC2)CCCCC1	inactive: 2.86%
CN(C)C1CCCC1OC(=O)C(O)(c1ccccc1)c1ccccc1 (stereo unspecified)	inactive: 2.5%
CCCCOc1ccccc1C(=O)NCC1(N(C)C)CCCCC1	inactive: -3.58%
COc1cccc(C(=O)NCC2(N3CCCCC3)CCCCC2)c1	inactive: -2.16%
COc1ccc(C(=O)NCC2(N(C)C)CCCCC2)cc1Cl	inactive: 3.28%
COc1cc(C(=O)NCC2(N(C)C)CCCCC2)cc(OC)c1OC	inactive: 6.63%
Cc1cccc(C(=O)NCC2(N(C)C)CCCCC2)c1	inactive: 8.01%
CC(C)Oc1ccc(C(=O)NCC2(N(C)C)CCCCC2)cc1	inactive: -0.72%
CN(C)c1cccc(C(=O)NCC2(N(C)C)CCCCC2)c1	inactive: -3.55%
COc1cccc(C(=O)NCC2(N3CCOCC3)CCCCC2)c1	inactive: -2.98%
O=C(OC1CN2CCC1CC2)C(CO)(c1ccccc1)c1ccccc1 (stereo unspecified)	inactive: 5.48%
CC(C)COc1ccc(C(=O)NCC2(N(C)C)CCCCC2)cc1	inactive: 1.98%
